Measurements as given in PubChem BioAssay AID1508602 (The Scripps Research Institute Molecular Screening Center, 2020).
Only a part is listed here, and it is no random draw. Active and inactive are the calls of the source. No stated cut-off is given here; in the data, active means activation above about 4.9%; inactive means the rest.

Sequences of proteins named here, by UniProt entry; tags and fusion partners are left off.
UniProt Q8TDV0, whole entry: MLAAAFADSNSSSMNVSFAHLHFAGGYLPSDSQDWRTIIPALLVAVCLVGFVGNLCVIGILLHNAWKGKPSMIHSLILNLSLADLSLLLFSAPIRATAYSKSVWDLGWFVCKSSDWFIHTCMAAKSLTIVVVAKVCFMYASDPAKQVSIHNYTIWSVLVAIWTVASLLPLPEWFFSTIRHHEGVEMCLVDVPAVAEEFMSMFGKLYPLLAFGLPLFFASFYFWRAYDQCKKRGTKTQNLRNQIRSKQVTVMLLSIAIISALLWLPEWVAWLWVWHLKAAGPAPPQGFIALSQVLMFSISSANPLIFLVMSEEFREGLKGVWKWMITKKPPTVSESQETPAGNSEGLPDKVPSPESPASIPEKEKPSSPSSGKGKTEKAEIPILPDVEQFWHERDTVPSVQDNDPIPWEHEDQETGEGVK

Target: G-protein coupled receptor 151 (Homo sapiens) (UniProt Q8TDV0)
Test: activates the human receptor GPR151, primary screen, cell-based, PathHunter beta-arrestin, luminescence (AID 1508602);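 further: 0% = median of compound wells and 100% = cells with positive control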
Conditions: PathHunter beta-arrestin GPR151 cells, at 11.2 µM, stronger effect = higher value

Row | Compound | activation
1 | N#CC1(Nc2ccccc2)CCN(Cc2ccccc2)CC1 | inactive: 0.521%
2 | CC1CN(CCc2ccccc2)CCC1=O (centres undefined) | inactive: 0.0837%
3 | CCOC(=O)N1CCC(Nc2ccc(OC)cc2)CC1 | inactive: -1.5%
4 | CN(CCOC(=O)C(O)(c1ccccc1)c1ccccc1)C(C)(C)C | inactive: 1.23%
5 | COc1ccc(C(=O)NCC2(N3CCCCC3)CCCCC2)c(OC)c1OC | inactive: -0.218%
6 | CCCN1CCC(Nc2ccc(OC)c(OC)c2)CC1 | inactive: 1.77%
7 | COc1ccc(C(=O)NCC2(N3CCCCC3)CCCCC2)cc1 | inactive: 0.0355%
8 | CCOC(=O)N1CCC(Nc2cccc(C)c2)CC1 | inactive: 0.184%
9 | COc1cccc(CN(CCCl)CCCl)c1 | inactive: 0.391%
10 | CN(C)P(=O)(OC(C)(C)C(Cl)(Cl)Cl)SCCCCl (centres undefined) | inactive: 0.569%
11 | CCOC(=O)N1CCC(Nc2ccc(F)cc2)CC1 | inactive: -0.389%
12 | COc1ccc(NC2CCN(CCc3ccccn3)CC2)cc1 | inactive: 0.284%
13 | O=C1CCN(Cc2ccccc2)CC1 | inactive: -0.662%
14 | CCCN1CCC(Nc2ccc(F)cc2)CC1 | inactive: 1.13%
15 | CC(=O)N1CCc2ccc(N(C(=O)C(C)(C)C)C3CCN(Cc4ccccc4)CC3)cc21 | inactive: -0.0701%
16 | O=C(NCC1(N2CCOCC2)CCCCC1)c1cc(=O)[nH]c2ccccc12 | inactive: -1.42%
17 | COc1ccccc1/C=C/CN1CCN(C(C)=O)CC1 | inactive: 0.444%
18 | CN1CCN(CCOC(=O)C(O)(c2ccccc2)c2ccccc2)CC1 | inactive: -0.159%
19 | CCN1CCC(Nc2ccc(Cl)cc2)CC1 | inactive: 1.26%
20 | COc1ccc(CCN2CCC(N(Cc3ccco3)C(C)=O)CC2)cc1 | inactive: 1.04%
21 | O=C(NCC1(N2CCCCC2)CCCCC1)c1cccc([N+](=O)[O-])c1 | inactive: -0.568%
22 | COc1ccc(NC2CCN(CCc3cccs3)CC2)cc1 | inactive: 1.2%
23 | CCN1CCC(Nc2ccccc2F)CC1 | inactive: 1.91%

Row | Compound | activation
24 | CCCOc1ccc(C(=O)NCC2(N(C)C)CCCCC2)cc1OC | inactive: -1.46%
25 | COc1cccc(OC)c1CN1CCC(Nc2ccccc2)CC1 | inactive: -1.15%
26 | CN1CCC(Nc2cccc(F)c2)CC1 | inactive: 1.94%
27 | O=C(NCC1(N2CCCCC2)CCCCC1)c1cncc(Br)c1 | inactive: 0.226%
28 | Cc1cc(C(=O)NCC2(N3CCOCC3)CCCCC2)c2ccccc2n1 | inactive: -1.19%
29 | COc1cc(OC)c(C(=O)NCC2(N(C)C)CCCCC2)cc1OC | inactive: 0.361%
30 | Cc1ccc(C(=O)O)cc1N(CCCl)CCCl | inactive: -0.0534%
31 | FC(F)(F)Oc1ccc(NC2CCNCC2)cc1 | inactive: -0.717%
32 | COc1ccc(CN(CCCl)CCCl)cc1Cl | inactive: -1.09%
33 | O=C1CCN(CCc2ccccc2)CC1 | inactive: -0.436%
34 | CN1CCC(Nc2ccc(F)cc2)CC1 | inactive: -1.33%
35 | CCOC(=O)N1CCC(Nc2ccc(Cl)cc2)CC1 | inactive: 0.121%
36 | CCOC(=O)N1CCC(Nc2ccc(C)cc2)CC1 | inactive: 1.82%
37 | O=C(NCC1(N2CCOCC2)CCCCC1)c1ccc2c(c1)OCO2 | inactive: 0.679%
38 | NC(=O)C1(Nc2ccccc2)CCN(Cc2ccccc2)CC1 | inactive: 0.152%
39 | COc1ccc(C(=O)NCC2(N3CCOCC3)CCCCC2)cc1OC | inactive: 0.859%
40 | COc1cc(C(=O)NCC2(N3CCOCC3)CCCCC2)cc(OC)c1C | inactive: -0.447%
41 | CCCN1CCC(Nc2cc(OC)cc(OC)c2)CC1 | inactive: -0.0672%
42 | c1ccc(CN2CCC(Nc3ccccc3)CC2)cc1 | inactive: -2.25%
43 | COc1ccc(CCN2CCC(Nc3ccc(OC)cc3)CC2)cc1 | inactive: -1.12%
44 | CC(=O)N1CCN(C/C=C/c2ccccc2[N+](=O)[O-])CC1 | inactive: 1.92%
45 | COc1cccc(OC)c1CN1CCC(=O)CC1 | inactive: 0.45%
46 | N#Cc1ccc(C(=O)NCC2(N3CCCCC3)CCCCC2)cc1 | inactive: 0.282%

Row | Compound | activation
47 | CC(C)(C)OC(=O)N1CCC(Nc2ccc(Cl)cc2Cl)CC1 | inactive: 1.58%
48 | CN1CCC(Nc2ccccc2F)CC1 | inactive: 0.148%
49 | CCOP(=O)(OCC)SCC(=O)N(CC)CC | inactive: -0.621%
50 | CCN1CCC(Nc2ccc(F)cc2)CC1 | inactive: 0.281%
51 | CC1CN(C)C(C)CC1Nc1ccccc1 (centres undefined) | inactive: 0.0922%
52 | O=C(NCC1(N2CCCCC2)CCCCC1)c1ccc([N+](=O)[O-])s1 | inactive: -0.589%
53 | Fc1cccc(NC2CCN(CCc3ccccc3)CC2)c1 | inactive: 0.105%
54 | Clc1ccc(NC2CCN(Cc3ccccc3)CC2)cc1 | inactive: 0.284%
55 | CCCN1CCC(Nc2ccc(Cl)cc2)CC1 | active: 5.27%
56 | CC1CN(Cc2ccccc2)CCC1=O (centres undefined) | inactive: 1.23%
57 | [C-]#N.[K+].c1ccc2c(c1)OCCOCCOc1ccccc1OCCOCCO2 | inactive: 1.58%
58 | CN(C)C1(CNC(=O)c2cc3c(s2)CCC3)CCCCC1 | inactive: -0.882%
59 | CN1CCC(Nc2ccccc2Cl)CC1 | inactive: -0.642%
60 | CN1CCC(Nc2ccc(Cl)cc2)CC1 | inactive: -0.835%
61 | COc1ccc(NC2CCN(Cc3ccncc3)CC2)cc1 | inactive: 0.0662%
62 | CN(C)C1(CNC(=O)c2cc(=O)[nH]c3ccccc23)CCCCC1 | inactive: 0.264%
63 | COc1cc(OC)cc(C(=O)NCC2(N3CCOCC3)CCCCC2)c1 | inactive: -0.222%
64 | CCC(CO)(C(=O)OC1CN2CCC1CC2)c1ccccc1 (centres undefined) | inactive: 0.756%
65 | O=C(O)C1(Nc2ccccc2)CCN(Cc2ccccc2)CC1 | inactive: -0.632%
66 | CCCOc1ccc(C(=O)NCC2(N(C)C)CCCCC2)cc1 | inactive: 1.26%
67 | CN1CCC(Nc2ccc(F)c(Cl)c2)CC1 | inactive: -1.05%
68 | CC(C)(C)OC(=O)N1CCC(Nc2ccc(F)cc2F)CC1 | inactive: -0.403%
69 | Fc1ccc(NC2CCN(Cc3ccccc3)CC2)cc1F | inactive: 0.0556%
